Test results: US9109045B2, “Mass producing growth factor using adipose derived adult stem cells” (PROSTEMICS CO., LTD., priority 2006, dated 2015)

Tested on: adipose-derived stem cells
Details: at the optimal concentrations

vitamin D
cytotoxicity by MTT assay: no cytotoxicity occurred
